Laboratory results reported in US20260232668A1 (Kadmon Corporation, LLC, priority 2023, published 2026).

Tested on: B cells (CD20+) in human whole blood
Experiment: anti-CD79b-mediated B-cell activation in human whole blood (CD69 on CD20+ B cells, flow cytometry)
Format: cell-based
Details: 10 μM compound, anti-CD79b stimulation, anti-CD79b alone 73.4%

CC(C)(C=C(C#N)C(=O)N1CCC[C@@H](n2nc(-c3ccc(Oc4ccccc4)cc3F)c3c(N)ncnc32)C1)N1CCN(C2COC2)CC1 [rilzabrutinib, (R)-2-[3-[4-amino-3-(2-fluoro-4-phenoxy-phenyl)pyrazolo[3,4-d]pyrimidin-1-yl]piperidine-1-carbonyl]-4-methyl-4-[4-(oxetan-3-yl)piperazin-1-yl]pent-2-enenitrile]
activated B cells (CD69 positive): 8.03%
